30 molecules from PubChem BioAssay AID1024 (Sanford-Burnham Center for Chemical Genomics, 2008) can be followed below.

By UniProt entry, the sequences of proteins in these tests, tags left out.
UniProt P11712, whole entry: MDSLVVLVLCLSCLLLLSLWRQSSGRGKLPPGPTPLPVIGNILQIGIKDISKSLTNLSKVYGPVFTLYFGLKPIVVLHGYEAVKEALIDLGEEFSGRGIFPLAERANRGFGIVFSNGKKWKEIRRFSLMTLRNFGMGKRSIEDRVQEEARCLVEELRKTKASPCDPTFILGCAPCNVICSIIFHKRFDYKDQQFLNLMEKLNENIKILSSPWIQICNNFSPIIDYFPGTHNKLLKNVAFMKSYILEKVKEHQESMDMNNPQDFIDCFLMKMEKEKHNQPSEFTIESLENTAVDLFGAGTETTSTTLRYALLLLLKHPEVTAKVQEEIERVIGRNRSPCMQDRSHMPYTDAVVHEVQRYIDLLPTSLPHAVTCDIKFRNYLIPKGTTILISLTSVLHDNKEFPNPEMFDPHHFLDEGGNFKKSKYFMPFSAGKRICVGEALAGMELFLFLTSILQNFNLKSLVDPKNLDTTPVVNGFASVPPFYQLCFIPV

Structures are written as SMILES. The list shows a part of the results, in another mix than the full data. Active and inactive are the calls of the source.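 How the source made its calls: active means activation factor of 2 or more for CYP2C9 at a 5 µM dose; inactive means the rest.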

The assay has as its target Cytochrome P450 2C9 (Homo sapiens) (UniProt P11712). Briefly: human CYP2C9 activators, primary screen, biochemical, luminescence (AID 1024).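 Further: 0 = sulfaphenazole-blocked wells and 1 = vehicle-only wells.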 The conditions noted are these: recombinant CYP2C9, luciferin-H conversion, at 5 µM, active compounds read high, factor 1 = untreated enzyme, 0 = blocked.
In the case of `Cc1cc(C)cc(OP(C)(=O)Nc2ccc(C)cc2C)c1` (stereo not given), the activation factor was inactive: 0.6.
Regarding `Cc1ccc(C)c(NP(C)(=O)Oc2ccccc2)c1` (stereo not given), the activation factor is inactive: 1.1.
Take `Cc1cc(C)cc(OP(C)(=O)Nc2ccccn2)c1` (stereo not given): the activation factor was inactive: 0.9.
The same measure for `Cc1nc2ccc3ccccc3c2s1.O=[N+]([O-])c1cc([N+](=O)[O-])c(O)c([N+](=O)[O-])c1`: inactive: 0.9.
As to `CP(=O)(NC(=O)Nc1ccccc1)Oc1ccccc1` (stereo not given), the activation factor is inactive: 1.2.
With `CP(=O)(Nc1ccccn1)Oc1ccc(Cl)cc1` (stereo not given), the activation factor was inactive: 1.
On to `CCOP(C)(=S)SCC(=O)NC(C)C(=O)O` (stereo not given), for which the activation factor was inactive: 0.5.
To `CP(=S)(Nn1cnnc1)Oc1ccccc1` (stereo not given) belongs inactive: 0.7; to `COc1ccc(OP(C)(=O)Nc2cccc(F)c2)cc1` (stereo not given), inactive: 0.5.
`COc1ccccc1OP(C)(=O)Nc1ccc(C)cc1` (stereo not given): the activation factor is inactive: 0.9.
On to `Cc1ccc(NP(C)(=O)Oc2ccccc2)c(C)c1` (stereo not given), for which the activation factor is inactive: 0.7.
On to `COc1ccc(OP(C)(=O)Nc2ccccn2)cc1` (stereo not given), for which the activation factor was inactive: 1.
The same measure for `CN(C)CCOC(=O)C(O)(c1ccccc1)C1CCCC1` (stereo not given): inactive: 0.9; for `CP(=O)(Nc1ccccn1)Oc1ccccc1` (stereo not given): inactive: 1.1.
For the molecule `COc1ccccc1OP(C)(=O)Nc1ccc(C)cc1C` (stereo not given), the activation factor is inactive: 1.
Consider `CCc1ccc(OP(C)(=O)O)cc1`, for which the activation factor was inactive: 1.
In the case of `Cc1c(NP(C)(=O)Oc2ccc(C(C)C)cc2)c(=O)n(-c2ccccc2)n1C` (stereo not given), the activation factor was inactive: 0.7.
The same measure for `COc1ccccc1OP(C)(=O)Nc1ccc(C)c(C)c1` (stereo not given): inactive: 1.1; for `Cc1nc2ccc3ccccc3c2o1.O=[N+]([O-])c1cc([N+](=O)[O-])c(O)c([N+](=O)[O-])c1`: inactive: 0.8; for `CP(=O)(OC12CC3CC(CC(C3)C1)C2)OC12CC3CC(CC(C3)C1)C2`: inactive: 1.1.
With `COc1ccccc1OP(C)(=O)Nc1c(C)n(C)n(-c2ccccc2)c1=O` (stereo not given), the activation factor was inactive: 1.
`CP(=O)(Oc1ccccc1)N1CCOC1=O` (stereo not given): the activation factor is inactive: 1.1.
As for `CCN(CC)CC(O)COC(=O)C(O)(c1ccccc1)C1CCCCC1` (stereo not given), the activation factor was inactive: 1.
The same measure for `CC(C)(C)c1ccc(OP(C)(=O)O)cc1`: inactive: 1.
Take `CCOP(C)(=S)SCC(=O)NC(C)(CC)C(=O)O` (stereo not given): the activation factor was inactive: 0.5.
`Cc1ccccc1NP(C)(=O)Nc1ccccc1C`: the activation factor is inactive: 0.8.
As to `CN(C)CCOC(=O)C(O)(c1ccccc1)C1CCCCC1` (stereo not given), the activation factor is inactive: 0.9.
To `COc1ccc(OP(C)(=O)Nc2cccc(Br)c2)cc1` (stereo not given) belongs inactive: 0.7; to `CP(=O)(Nc1ccccc1)Oc1ccc(F)cc1` (stereo not given), inactive: 1.2.
Turning to `CP(=O)(Nc1ccccc1F)Oc1ccccc1` (stereo not given), the activation factor is inactive: 0.9.
